The values that follow come from ChEMBL document CHEMBL3227974, “Multivariate analysis and quantitative structure-activity relationships. Inhibition of dihydrofolate reductase and thymidylate synthetase by quinazolines” (J Med Chem, 1979).

Assay [1] addresses T1, Dihydrofolate reductase (Mus musculus) (UniProt P00375).
T1 sequence (whole entry): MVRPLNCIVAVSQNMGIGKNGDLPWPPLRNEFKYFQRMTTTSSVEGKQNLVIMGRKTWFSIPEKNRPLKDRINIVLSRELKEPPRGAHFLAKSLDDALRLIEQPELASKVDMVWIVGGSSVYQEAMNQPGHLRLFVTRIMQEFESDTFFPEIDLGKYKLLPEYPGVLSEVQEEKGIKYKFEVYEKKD
In words: Inhibition of dihydrofolate reductase in mouse L1210R cells. In kind it is cell-based.

The target in assay [2] is T2, Dihydrofolate reductase (Homo sapiens) (UniProt P00374).
T2 sequence (whole entry): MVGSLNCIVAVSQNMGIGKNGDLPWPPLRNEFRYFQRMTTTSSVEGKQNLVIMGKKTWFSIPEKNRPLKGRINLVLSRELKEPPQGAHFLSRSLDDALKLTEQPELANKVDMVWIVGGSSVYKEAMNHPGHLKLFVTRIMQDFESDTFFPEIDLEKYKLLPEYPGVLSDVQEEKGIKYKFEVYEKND

`CN(Cc1ccc2nc(N)nc(N)c2c1)c1ccc(C(=O)NC(CCC(=O)O)C(=O)O)cc1` (configuration not stated): the values for the log(1/I50) in assay [1] and in assay [2] were 8.88 and 8.41, respectively.
